{"source": "patent US5278146A", "about": "“CRF analogs” (The Salk Institute for Biological Studies, priority 1992, dated 1994)", "key": {"[1]": {"assay": "In vivo testing (procedure of C. Rivier et al., Science 218, 377): duration of potency and blood pressure", "details": "administered peripherally (where stated)"}, "[2]": {"test_system": "cultured rat pituitary cells", "assay": "Secretion of ACTH and β-endorphin by cultured rat pituitary cells", "type": "cell-based", "details": "general procedure of Example III", "description": "The synthetic peptide [D-Glu^20 ]-oCRF is examined for its effects on the secretion of ACTH and β-endorphin vitro and was also in vivo. The potency of synthetic [D-Glu^20 ]-oCRF to stimulate the secretion of ACTH and β-endorphin by cultured rat pituitary cells is measured using the procedure as generally set forth in Endocrinology, 91, 562 (1972) and compared against synthetic oCRF."}}}
{"compound": "CCCC[C@H](NC(=O)[C@H](CC(C)C)NC(=O)[C@H](CCCCN)NC(=O)[C@H](CCCNC(=N)N)NC(=O)[C@H](CC(N)=O)NC(=O)[C@H](CO)NC(=O)[C@H](Cc1c[nH]cn1)NC(=O)[C@H](C)NC(=O)[C@H](CCC(N)=O)NC(=O)[C@H](CCC(N)=O)NC(=O)[C@H](C)NC(=O)[C@H](CC(C)C)NC(=O)[C@H](CCC(N)=O)NC(=O)[C@H](CC(=O)O)NC(=O)[C@H](C)NC(=O)[C@H](CCCCN)NC(=O)[C@@H](NC(=O)[C@H](CCCC)NC(=O)[C@H](CCC(=O)O)NC(=O)[C@H](CC(C)C)NC(=O)[C@@H](NC(=O)[C@H](CCC(=O)O)NC(=O)[C@H](CCCNC(=N)N)NC(=O)[C@H](CC(C)C)NC(=O)[C@H](CC(C)C)NC(=O)[C@H](Cc1c[nH]cn1)NC(=O)[C@@H](Cc1ccccc1)NC(=O)[C@@H](NC(=O)[C@H](CC(C)C)NC(=O)[C@H](CC(=O)O)NC(=O)[C@H](CC(C)C)NC(=O)[C@H](CO)NC(=O)[C@@H](NC(=O)[C@@H]1CCCN1C(=O)[C@@H]1CCCN1C(=O)[C@H](CCC(=O)O)NC(=O)[C@H](CCC(N)=O)NC(=O)[C@@H](N)CO)[C@@H](C)CC)[C@@H](C)O)C(C)C)[C@@H](C)O)C(=O)N[C@@H](CC(=O)O)C(=O)N[C@H](C(=O)N[C@@H](C)C(N)=O)[C@@H](C)CC", "note": "[[D-Phe^12, Nle^21,38]-oCRF]", "values": [{"measurement": "Lowering of blood pressure", "setting": "[1]", "result": "very significant lowering of blood pressure"}]}
{"compound": "CCCC[C@H](NC(=O)[C@H](CCC(=O)O)NC(=O)[C@H](CC(C)C)NC(=O)[C@@H](NC(=O)[C@H](CCC(=O)O)NC(=O)[C@H](CCCNC(=N)N)NC(=O)[C@H](CC(C)C)NC(=O)[C@H](CC(C)C)NC(=O)[C@H](Cc1c[nH]cn1)NC(=O)[C@@H](Cc1ccccc1)NC(=O)[C@@H](NC(=O)[C@H](CC(C)C)NC(=O)[C@H](CC(=O)O)NC(=O)[C@H](CC(C)C)NC(=O)[C@H](CO)NC(=O)[C@@H](NC(=O)[C@@H]1CCCN1C(=O)[C@@H]1CCCN1C(=O)[C@H](CCC(=O)O)NC(=O)[C@H](CCC(N)=O)NC(=O)[C@@H](N)CO)[C@@H](C)CC)[C@@H](C)O)C(C)C)C(=O)N[C@H](C(=O)N[C@@H](CCCCN)C(=O)N[C@@H](C)C(=O)N[C@@H](CC(=O)O)C(=O)N[C@@H](CCC(N)=O)C(=O)N[C@@H](CC(C)C)C(=O)N[C@@H](C)C(=O)N[C@@H](CCC(N)=O)C(=O)N[C@@H](CCC(N)=O)C(=O)N[C@@H](C)C(=O)N[C@@H](Cc1c[nH]cn1)C(=O)N[C@@H](CO)C(=O)N[C@@H](CC(N)=O)C(=O)N[C@@H](CCCNC(=N)N)C(=O)N[C@@H](CCCCN)C(=O)N[C@@H](CC(C)C)C(=O)N[C@@H](CC(C)C)C(=O)N[C@@H](CC(=O)O)C(=O)N[C@H](C(=O)N[C@@H](C)C(N)=O)[C@@H](C)CC)[C@@H](C)O", "note": "[[D-Phe^12, Nle^21]-oCRF]", "values": [{"measurement": "Lowering of blood pressure", "setting": "[1]", "result": "very significant lowering of blood pressure"}]}
{"compound": "CCCC[C@H](NC(=O)[C@H](CCC(=O)O)NC(=O)[C@H](CC(C)C)NC(=O)[C@@H](NC(=O)[C@H](CCC(=O)O)NC(=O)[C@H](CCCNC(=N)N)NC(=O)[C@H](CC(C)C)NC(=O)[C@H](CC(C)C)NC(=O)[C@H](Cc1c[nH]cn1)NC(=O)[C@@H](Cc1ccccc1)NC(=O)[C@@H](NC(=O)[C@H](CC(C)C)NC(=O)[C@H](CC(=O)O)NC(=O)[C@H](CC(C)C)NC(=O)[C@H](CO)NC(=O)[C@@H](NC(=O)[C@@H]1CCCN1C(=O)[C@@H]1CCCN1C(=O)[C@H](CCC(=O)O)NC(=O)[C@H](CCC(N)=O)NC(=O)[C@@H](N)CO)[C@@H](C)CC)[C@@H](C)O)C(C)C)C(=O)N[C@H](C(=O)N[C@@H](CCCCN)C(=O)N[C@@H](C)C(=O)N[C@@H](CC(=O)O)C(=O)N[C@@H](CCC(N)=O)C(=O)N[C@@H](CC(C)C)C(=O)N[C@@H](C)C(=O)N[C@@H](CCC(N)=O)C(=O)N[C@@H](CCC(N)=O)C(=O)N[C@@H](C)C(=O)N[C@@H](Cc1c[nH]cn1)C(=O)N[C@@H](CO)C(=O)N[C@@H](CC(N)=O)C(=O)N[C@@H](CCCNC(=N)N)C(=O)N[C@@H](CC(C)C)C(=O)N[C@@H](CC(C)C)C(=O)N[C@@H](CC(C)C)C(=O)N[C@@H](CC(=O)O)C(=O)N[C@H](C(=O)N[C@@H](C)C(N)=O)[C@@H](C)CC)[C@@H](C)O", "note": "[[D-phe^12, Nle^21, Leu^36]-oCRF]", "values": [{"measurement": "Lowering of blood pressure", "setting": "[1]", "result": "very significant lowering of blood pressure"}, {"measurement": "Stimulation of the secretion of ACTH and β-END-LI", "setting": "[2]", "result": "stimulates the secretion of ACTH and β-END-LI"}]}
